From patent US20150157739A1, “Imidazo[2,1]thiazol-3-one derivatives” (Hoffmann-La Roche Inc., priority 2012, published 2015) come the findings set out here.

Chains of the proteins cited; added tags and fusions are not shown. Residues count along the entry.
UniProt P05067, 672-711 limits assumed: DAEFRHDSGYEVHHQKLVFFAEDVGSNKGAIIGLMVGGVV
UniProt P10636, whole entry: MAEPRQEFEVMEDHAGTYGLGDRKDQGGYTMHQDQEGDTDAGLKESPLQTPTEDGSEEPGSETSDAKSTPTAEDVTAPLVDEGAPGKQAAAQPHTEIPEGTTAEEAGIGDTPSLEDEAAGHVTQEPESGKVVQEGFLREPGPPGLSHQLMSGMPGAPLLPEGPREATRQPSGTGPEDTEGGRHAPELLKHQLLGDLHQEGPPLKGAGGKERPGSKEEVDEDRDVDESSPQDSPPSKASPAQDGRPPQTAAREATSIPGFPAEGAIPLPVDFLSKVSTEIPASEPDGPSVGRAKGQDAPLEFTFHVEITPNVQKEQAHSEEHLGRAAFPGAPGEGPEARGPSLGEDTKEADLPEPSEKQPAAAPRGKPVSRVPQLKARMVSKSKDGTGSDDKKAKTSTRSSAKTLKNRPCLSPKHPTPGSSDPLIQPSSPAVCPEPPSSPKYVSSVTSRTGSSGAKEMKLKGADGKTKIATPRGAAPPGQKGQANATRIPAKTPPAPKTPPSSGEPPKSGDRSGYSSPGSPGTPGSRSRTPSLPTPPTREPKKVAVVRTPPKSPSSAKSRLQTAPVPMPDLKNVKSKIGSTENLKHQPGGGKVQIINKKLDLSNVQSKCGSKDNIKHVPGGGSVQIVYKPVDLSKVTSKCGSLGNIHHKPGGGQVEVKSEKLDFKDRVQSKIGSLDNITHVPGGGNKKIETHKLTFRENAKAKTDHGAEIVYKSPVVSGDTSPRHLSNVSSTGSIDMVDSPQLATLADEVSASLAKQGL

Like-named read-outs stand apart in the source and are kept apart here.

The term IC50 denotes the concentration that inhibits the measured activity by half.

The target of assay [1] is T1, aggregated synthetic Aβ40 (Homo sapiens, UniProt P05067).
T1 construct: Synthetic Aβ40 is aggregated at a concentration of 50 μM
Nature of the assay: Thiazin-red R displacement fluorescence assay on aggregated A-beta. The assay is classed as binding. How it is done: (§1) Assay for Determination of […] for Tau and A-Beta
(§2) Recombinant human-microtubule associated protein Tau purified from E. coli is aggregated at a concentration of 5 μM with Arachidonic Acid (100 μM) in Tris 10 mM pH8, 24 h at 37° C. Synthetic Aβ40 is aggregated at a concentration of 50 μM with Arachidonic Acid (100 μM) in Tris 10 mM pH8, for three days at 37° C., under shaking at 150 rpm.
(§3) A saturation analysis of Thiazin-red R to the aggregated proteins is done to determine the affinity (Kd) of the Thiazin-red R to the aggregated protein.
(§4) Thiazin-red R will be added at the concentration corresponding to the Kd to the respective aggregated protein binding site, to induce a fluorescent signal that can be inhibited by the addition of a displacer compound.
(§5) In parallel, auto fluorescence of the compound is measured together with the aggregated proteins, but without Thiazin-red R. As negative control, ligand and aggregated protein is used and as positive control, Thiazin-red R, reference compound with known activity and aggregated protein is used.
(§6) Assay is performed in Perkin Elmer OptiPlate 384, black, 45 ul assay volume, assay buffer is DPBS no CaCl2 no MgCl2 (GIBCO N. 14020). Tested compounds are diluted in DMSO and 2 μl is added to the assay ([…]). Assay is started by the addition of the aggregated protein (competitive condition). […]

Assay [2] concerns the target T2, aggregated recombinant human-microtubule associated protein Tau (Homo sapiens, UniProt P10636).
T2 construct: Recombinant human-microtubule associated protein Tau purified from E. coli is aggregated at a concentration of 5 μM with Arachidonic Acid (100 μM) in Tris 10 mM pH8, 24 h at 37° C
Nature of the assay: Thiazin-red R displacement fluorescence assay on aggregated Tau. Type of assay: binding. The method, then:
as §1, §2, §3, §4, §5, §6

Regarding `COc1cc(/C=c2\sc3nc(-c4cccc(Cl)c4)cn3c2=O)cc(OC)c1O` [Example 21, 6-(3-Chloro-phenyl)-2-[1-(4-hydroxy-3,5-dimethoxy-phenyl)-meth-(Z)-ylidene]-imidazo[2,1-b]thiazol-3-one], the IC50 was found to be 6 nM in assay [1] and 1 nM in assay [2].

For `COc1cc(/C=c2\sc3nc(-c4cccc(Cl)c4)cn3c2=O)cc(Cl)c1O` [Example 25, 6-(3-Chloro-phenyl)-2-[1-(3-chloro-4-hydroxy-5-methoxy-phenyl)-meth-(Z)-ylidene]-imidazo[2,1-b]thiazol-3-one], the IC50 is 253 nM in assay [1] (displacement of Thiazin-red R from aggregated Aβ40, compound 0.3 nM to 10000 nM, 30 min room temperature, Ex 531 nm/Em 595 nm) and 0.5 nM in assay [2] (displacement of Thiazin-red R from aggregated Tau, compound 0.3 nM to 10000 nM, 30 min room temperature, Ex 531 nm/Em 595 nm).
